# Values quoted from earlier work, collected in patent US10517869B2, “Topical brimonidine tartrate ophthalmic solution” (SENTISS PHARMA PRIVATE LIMITED, priority 2013, dated 2019).
# Settings: cited from earlier work
compound,measurement,value
Brc1c(NC2=NCCN2)ccc2nccnc12 [Brimonidine],pKa,7.4
